# Assay results from patent US8293274B2, “Intestinal absorptive anti-tumor agent” (Kabushiki Kaisha Sangi, priority 2005, dated 2012).
# Conditions: rat, in vivo, po
# Description: Rats were fasted for 16 hours and then forced oral administration to the stomach was performed using an oral gastric tube for rats.
# Blood was collected from the tail vein prior to administration and 15 and 30 minutes, 1, 2, 3, 4, 6, 8 and 24 hours after administration. The collected blood was centrifuged at 4° C. for 15 minutes at 3,000 rpm to obtain plasma, and then the plasma concentrations of the various antitumor agents were measured.
# These concentrations were measured using gas chromatography and liquid chromatography.
substance,measurement,value
interferon β [Comparative Test Example 4-1],AUC0-24 h,3.79 IU hr/ml
same,Cmax,1.52 IU/ml
same,Tmax,1.50 h
